Binding of CDR-mutated scFvs to a peptide of the spike HR2 region

The measurements come from Engelhart et al. 2022 (doi:10.1038/s41597-022-01779-4) through the FLAb antibody collection.

Binding partner: SARS-CoV-2 spike HR2 peptide, sequence PDVDLGDISGINAS.

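Phage display of a naive human antibody library on the peptide gave the parent. In library AAYL50, one, two or three CDR residues were substituted; doubles and triples were drawn at random. The assay is AlphaSeq: two haploid yeast populations carry antibody and antigen on their surface. The frequency of each diploid, read from paired DNA barcodes, reflects how well the two displayed proteins bind. Read counts were normalised to the haploid input and turned into Kd by a linear fit to BCL2-family pairs of known affinity, for each replicate. The assay was run in three technical replicates.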

Ab-14 is the parent antibody, in scFv form: VH, then three GGGGS repeats, then VL. The heavy chain is unchanged in all variants.
VH: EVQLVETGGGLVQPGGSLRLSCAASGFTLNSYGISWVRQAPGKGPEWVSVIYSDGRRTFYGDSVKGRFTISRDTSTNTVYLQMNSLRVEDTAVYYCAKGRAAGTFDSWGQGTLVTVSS
VL: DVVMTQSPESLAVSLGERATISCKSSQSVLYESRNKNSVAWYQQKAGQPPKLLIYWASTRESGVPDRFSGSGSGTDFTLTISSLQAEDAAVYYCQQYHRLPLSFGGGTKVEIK

Positions count from residue 1 of the parent VL; S26V puts V in place of S.
Scale: log10 of Kd in nM, estimated from mating counts; low values are strong binders.
A mean of the replicates is given; it leaves out those without a signal.
A pair that was not seen in that replicate is written "nd"; this usually means weak binding, but a binder can also be missed.
Background: pairings of library AAYL50 with three empty control strains gave a value in 18% of cases (median 4.19, 5th percentile 2.99). Values in that range, when seen in few replicates, are hard to tell from nonspecific mating. Also given: how often the same scFv was detected with the empty control strains.

The variant S26V+Q27K+S103F showed 2.44, nd, nd (controls 0 of 9).
The variant H98Y+L100V+S103Y showed 0.97, 1.08, 1.08 (mean 1.04; controls 2 of 9).
The variant W56T+A57I+S62Y showed 2.69, 2.77, 3.67 (mean 3.05; controls 0 of 9).
The variant L30K+L100Y showed nd, 2.57, 3.30 (mean 2.94; controls 1 of 9).
The variant Y31Q+R99D+L100W showed 3.29, 2.88, 1.33 (mean 2.50; controls 0 of 9).
The variant L30S+W56I+S103K showed nd, nd, nd (controls 3 of 9).
The variant V29M+A40K+R60N showed 4.79, 4.40, nd (mean 4.60; controls 1 of 9).
The variant K24A+K36I+N37F showed 3.89, 3.11, 3.34 (mean 3.45; controls 0 of 9).
The variant V29L+S58T+T59W showed 1.14, 1.18, 1.02 (mean 1.11; controls 0 of 9).
The variant Y31D+N35D showed 0.05, 0.59, 0.21 (mean 0.28; controls 3 of 9).
The variant N37W+A57L+E61K showed nd, nd, nd (controls 1 of 9).
The variant S28I+R34T showed nd, nd, nd (controls 0 of 9).
The variant S28A+R34H+S58I showed nd, nd, nd (controls 0 of 9).
The variant K24M+V29Q+L100D showed 2.27, 2.71, nd (mean 2.49; controls 2 of 9).
The variant E32R+S38M+Y97E showed nd, nd, nd (controls 0 of 9).
The variant S38W+L100T+L102I showed 5.13, nd, 5.88 (mean 5.50; controls 4 of 9).
The variant K24M+W56S showed 0.03, 0.33, 0.14 (mean 0.17; controls 2 of 9).
The variant S38F+T59S showed nd, 3.63, 5.28 (mean 4.45; controls 1 of 9).
The variant S26Y+T59W+S62C showed nd, nd, nd (controls 0 of 9).
The variant S26F+A57H+T59G showed nd, nd, nd (controls 2 of 9).
The variant S38N+W56E+R60H showed -0.09, 0.23, 0.06 (mean 0.07; controls 0 of 9).
The variant N35P+S38W+Q96A showed nd, nd, nd (controls 3 of 9).
The variant R34K+Q96A showed 1.35, 1.71, 1.94 (mean 1.67; controls 1 of 9).
The variant Q95Y+H98N showed nd, 5.01, 5.33 (mean 5.17; controls 5 of 9).
The variant Q27V+N35E+Q96T showed 3.24, 2.21, 3.77 (mean 3.07; controls 1 of 9).
The variant W56T+S58T+Y97C showed 1.15, 1.27, 1.23 (mean 1.21; controls 6 of 9).
The variant S38I+A40R+E61V showed nd, nd, nd (controls 1 of 9).
The variant W56D+A57K+R60Q showed 0.18, 0.47, 0.32 (mean 0.32; controls 0 of 9).
The variant K24Y+A40S+H98Q showed nd, nd, nd (controls 2 of 9).
The variant S25D+S28Q+Y97F showed 4.48, 2.82, 3.76 (mean 3.69; controls 3 of 9).
The variant R34V+A40Y+S62V showed nd, nd, nd (controls 0 of 9).
The variant A40T+R60S+H98K showed nd, 4.26, nd (controls 1 of 9).
The variant W56G+Q96I+R99C showed nd, 5.19, nd (controls 3 of 9).
The variant S26Q+Y31N+T59E showed 5.47, 3.96, 4.10 (mean 4.51; controls 1 of 9).
The variant S28E+A40V+R99Q showed 3.19, 3.43, 3.47 (mean 3.36; controls 3 of 9).
The variant S25A+L30S+S103Y showed 1.98, 1.64, 1.81 (mean 1.81; controls 0 of 9).
The variant K24D+L30V+E32H showed 3.09, 3.26, 3.44 (mean 3.26; controls 2 of 9).
The variant S26R+Q27V+E32T showed 1.26, 1.47, 1.21 (mean 1.32; controls 0 of 9).

For reference, 4 entries of the list once more:

| changes | log10 Kd, replicates | mean log10 Kd (nM) | control signals |
|---|---|---|---|
| S28A+R34H+S58I | nd, nd, nd | nd | 0 of 9 |
| S26F+A57H+T59G | nd, nd, nd | nd | 2 of 9 |
| R34V+A40Y+S62V | nd, nd, nd | nd | 0 of 9 |
| N37W+A57L+E61K | nd, nd, nd | nd | 1 of 9 |